The results in this text go back to US20070213394A1 (priority 2004, published 2007).

Amino acid sequences for entries named in this document (tags omitted). A change or cut given only in a name is not applied to a line headed by its entry.
UniProt P41145: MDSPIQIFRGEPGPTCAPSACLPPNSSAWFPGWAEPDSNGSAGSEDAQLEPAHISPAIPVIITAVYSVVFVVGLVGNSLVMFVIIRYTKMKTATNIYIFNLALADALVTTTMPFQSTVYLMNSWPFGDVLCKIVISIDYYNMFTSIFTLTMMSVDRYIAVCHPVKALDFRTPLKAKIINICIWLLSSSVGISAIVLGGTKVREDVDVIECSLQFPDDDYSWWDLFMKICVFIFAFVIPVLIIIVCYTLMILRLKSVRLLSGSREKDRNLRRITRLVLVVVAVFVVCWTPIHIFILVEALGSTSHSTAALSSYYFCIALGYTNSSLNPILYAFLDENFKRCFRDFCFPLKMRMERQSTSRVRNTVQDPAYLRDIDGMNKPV

The target of test [1] is T1, human kappa opioid receptor (Homo sapiens, UniProt P41145).
T1 construct: expressed in transfected cells; host or cells: Chinese hamster ovary cells (CHO-hKOR), membranes
The experiment in a line: biochemical.

Test [2] addresses T1, human kappa opioid receptor. The test can be described thus: biochemical. The test is classed as binding.

Like-named read-outs stand apart in the source and are kept apart here.

One may read the EC50 as the midpoint of the concentration-response curve. As usually defined, the Ki is the equilibrium dissociation constant of an inhibitor or competing ligand from its target.

Compound 2-ethoxy-salvinorin B [Compound 15] displayed an Efficacy in test [1] of 103%. Further, the EC50 in test [1] (read-out: EC50) was determined as 18.6 ± 2.6 nM. Also, the inhibition constant (Ki) in test [2] (read-out: Ki) came to 7.9 ± 0.3 nM.

On to “2-epi-(N-methylacetamide)-salvinorin [Compound 80]”, for which the Efficacy in test [1] came to 106%. For the same compound, the EC50 in test [1] (read-out: EC50) was 21 ± 0.9 nM. Further, the Ki in test [2] (read-out: Ki) was determined as 16.5 ± 1.1 nM.

In test [1], `COC(=O)[C@@H]1C[C@@H](N(C)C(C)=O)C(=O)C2[C@@]1(C)CC[C@H]1C(=O)O[C@H](c3ccoc3)C[C@]21C` (stereo partly drawn) [Compound 80, 2-epi-(N-methylacetamide)-salvinorin] had an EC50 of 21 ± 0.7 nM. In test [2], this compound had a Ki of 16.5 ± 1.1 nM.

For the compound `CCO[C@H]1C[C@@H](C(=O)OC)[C@]2(C)CC[C@H]3C(=O)O[C@H](c4ccoc4)C[C@]3(C)C2C1=O` (stereo partly shown) [Compound 15, 2-ethoxy-salvinorin B], the EC50 in test [1] stood at 18.6 ± 2.6 nM. In addition, the affinity in test [2], expressed as Ki, was 7.9 ± 0.3 nM.
